# Measured values: patent publication US9133120B2
# Protein sequences, listed by entry. Tags and fused reporters are not part of them.
# UniProt P33535, whole entry, looked up: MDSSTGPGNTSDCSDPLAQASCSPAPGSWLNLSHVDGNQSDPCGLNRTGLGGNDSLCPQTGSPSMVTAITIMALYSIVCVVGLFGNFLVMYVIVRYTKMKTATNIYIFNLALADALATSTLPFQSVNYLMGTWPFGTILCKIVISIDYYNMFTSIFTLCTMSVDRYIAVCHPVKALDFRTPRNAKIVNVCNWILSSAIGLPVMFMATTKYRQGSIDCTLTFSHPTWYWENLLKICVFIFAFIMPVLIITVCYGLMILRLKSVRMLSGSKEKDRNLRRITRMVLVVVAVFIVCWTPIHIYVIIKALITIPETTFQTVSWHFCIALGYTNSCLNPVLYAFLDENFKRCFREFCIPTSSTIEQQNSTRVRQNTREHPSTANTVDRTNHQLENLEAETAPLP
# Biological target: Wild-type mu-receptors (Rattus norvegicus, UniProt P33535)
# Assay: Suppression of FSK/IBMX-stimulated cAMP accumulation (cAMP ELISA) in transfected HEK-293 cells
# Conditions: for cAMP (% baseline): 10 μM agonist, FSK/IBMX-stimulated; for suppression of FSK/IBMX-stimulated cAMP formation: pH 5.0 compared to pH 7.5
SMILES,cAMP (% baseline) (pH 5.0),suppression of FSK/IBMX-stimulated cAMP formation,cAMP (% baseline) (pH 6.5),cAMP (% baseline) (pH 7.5)
CN1CC[C@]23c4c5ccc(O)c4O[C@H]2[C@@H](O)C=C[C@H]3[C@H]1C5,46 ± 11 % baseline,markedly stronger at pH 5.0 than at pH 7.5,64 ± 13 % baseline,80 ± 10 % baseline
C[C@@H](NC(=O)[C@@H](N)Cc1ccc(O)cc1)C(=O)NCC(=O)N(C)[C@@H](Cc1ccccc1)C(=O)NCCO,–,markedly stronger at pH 5.0 than at pH 7.5,–,–
